Data on 74 molecules can be found in PubChem BioAssay AID624377 (The Scripps Research Institute Molecular Screening Center, 2012).

Sequences of proteins named here, by UniProt entry; tags and fusion partners are left off. A change or cut given only in a name is not applied to a line headed by its entry.
UniProt Q9ULH1: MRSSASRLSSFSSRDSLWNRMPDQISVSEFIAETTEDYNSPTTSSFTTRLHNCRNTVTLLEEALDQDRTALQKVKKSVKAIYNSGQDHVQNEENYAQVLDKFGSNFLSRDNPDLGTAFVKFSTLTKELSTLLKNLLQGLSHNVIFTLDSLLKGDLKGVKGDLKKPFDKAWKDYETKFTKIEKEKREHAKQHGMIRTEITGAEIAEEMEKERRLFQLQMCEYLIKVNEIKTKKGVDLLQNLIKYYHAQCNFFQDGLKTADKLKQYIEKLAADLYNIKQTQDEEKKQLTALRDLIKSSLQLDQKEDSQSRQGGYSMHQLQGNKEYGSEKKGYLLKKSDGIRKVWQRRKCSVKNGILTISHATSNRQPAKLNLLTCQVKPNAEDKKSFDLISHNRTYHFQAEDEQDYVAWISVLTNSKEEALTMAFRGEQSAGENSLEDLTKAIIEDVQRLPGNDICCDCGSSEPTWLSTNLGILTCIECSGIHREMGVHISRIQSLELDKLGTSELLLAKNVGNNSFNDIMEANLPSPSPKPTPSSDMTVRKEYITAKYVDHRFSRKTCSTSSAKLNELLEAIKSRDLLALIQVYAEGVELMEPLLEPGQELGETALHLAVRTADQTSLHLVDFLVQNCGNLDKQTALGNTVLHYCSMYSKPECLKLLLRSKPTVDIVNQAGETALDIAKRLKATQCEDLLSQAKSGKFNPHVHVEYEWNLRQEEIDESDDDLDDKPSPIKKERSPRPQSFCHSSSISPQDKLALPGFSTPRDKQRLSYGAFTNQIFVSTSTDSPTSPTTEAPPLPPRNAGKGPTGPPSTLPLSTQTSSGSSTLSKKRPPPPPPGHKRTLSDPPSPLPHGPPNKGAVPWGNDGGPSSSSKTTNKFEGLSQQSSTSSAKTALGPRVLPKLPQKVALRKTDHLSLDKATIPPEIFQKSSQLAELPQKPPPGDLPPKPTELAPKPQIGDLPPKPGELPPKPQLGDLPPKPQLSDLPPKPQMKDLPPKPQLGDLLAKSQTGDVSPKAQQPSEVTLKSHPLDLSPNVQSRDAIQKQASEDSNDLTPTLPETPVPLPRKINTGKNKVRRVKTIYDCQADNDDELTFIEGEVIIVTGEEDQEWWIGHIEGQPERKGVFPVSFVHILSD

The entries are a selection whose mix differs from that of the whole data set. Calls of active or inactive are those of the source. No stated cut-off is given here; in the data, active means inhibition above about 25%; inactive means the rest.

The assay deals with Arf-GAP with SH3 domain, ANK repeat and PH domain-containing protein 1 (Homo sapiens) (UniProt Q9ULH1). Nature of the assay: inhibitors of human ASAP1 ArfGAP activity, primary screen, biochemical, fluorescence polarization (AID 624377).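 Further: 0% = vehicle with enzyme and substrate and 100% = no enzyme.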 The conditions noted are these: ASAP1-stimulated ARF1 GTP hydrolysis, GDP FP detection; at 16.5 µM; stronger effect = higher value. Background: Polarisation of emitted light reports the rotation of a fluorescent probe.
A word on the inhibition: it is the relative decrease from the control value, in per cent. With `COc1ccccc1OP(=O)(Nc1ccc(C)cn1)Oc1ccccc1OC`, the inhibition was inactive: 6.34%.
For the molecule `Cc1ccc(OP(=O)(Nc2nccs2)Oc2ccc(C)cc2)cc1`, the inhibition is inactive: -6.12%.
The same measure for `CN1CCCC(OC(=O)C(c2ccccc2)c2ccccc2)C1` (centres undefined): inactive: 7.26%; for `Clc1ccc(Cl)c(NC2=NCC(CBr)S2)c1` (centres undefined): inactive: 18.6%; for `NC(=O)c1cc([N+](=O)[O-])cc([N+](=O)[O-])c1N`: inactive: 0.43%.
The same measure for `CN(C(=O)Cc1ccc(Cl)c(Cl)c1)[C@H]1CCCC[C@H]1N1CCCC1`: inactive: -5.46%.
Regarding `Cc1ccc(N/C(=N/P(=O)(N2CCOCC2)N2CCOCC2)N2CCOCC2)cc1`, the inhibition was inactive: -3.97%.
Turning to `Nc1cc(N)c2nonc2c1[N+](=O)[O-]`, the inhibition is inactive: 4.76%.
The figure for `CC(C)CC(=O)NC(Sc1ccc(Cl)cc1)C(Cl)(Cl)Cl` (centres undefined) is inactive: -5.35%.
The figure for `Oc1ccccc1CNc1ccccn1` is inactive: -3.72%.
Consider `O=C(NC(Sc1ccncn1)C(Cl)(Cl)Cl)c1ccccc1` (centres undefined), for which the inhibition is inactive: -12.2%.
In the case of `CC(=O)N1C2C3N(C(C)=O)C1C1N(C(C)=O)C(C(N1C(C)=O)N3C(C)=O)N2C(C)=O`, the inhibition was inactive: -12.6%.
As for `O=[N+]([O-])c1cccc2n[nH]nc12`, the inhibition is inactive: 16.1%.
The figure for `Cc1ccc(NP(=O)(Oc2ccccc2)Oc2ccccc2)nc1` is inactive: 10.6%.
The figure for `O=[N+]([O-])c1cc([N+](=O)[O-])c(CCNc2ccccc2)c([N+](=O)[O-])c1` is inactive: 7.77%; for `CCc1nc2c(n1)c1c(non1O)c1c2no[n+]1[O-]` it is inactive: 2.28%.
Consider `COc1ccc(C2=NCC(CBr)S2)cc1` (centres undefined), for which the inhibition was inactive: -2.61%.
The figure for `CC(C)c1nc(Nc2ccccc2)n(P(=O)(N(C)C)N(C)C)n1` is inactive: 21%; for `CC(C)=N/N=C(\N)N[N+](=O)[O-]` it is inactive: 2.04%; for `CN(C)C(=O)OCCc1n(C)cc[n+]1C` it is inactive: 2.16%.
As to `CC1CCN(C(=O)Oc2c(Cl)cc(Cl)c3cccnc23)CC1`, the inhibition is inactive: -18.2%.
The figure for `c1cc(-c2nn[nH]n2)ccc1-c1nn[nH]n1` is inactive: -11.3%; for `Nc1ccc([As](=O)(O)c2ccc(N)cc2)cc1` it is inactive: -6.47%.
In the case of `C[N+]1=C2C=CC=CC=C2SC12C([N+](=O)[O-])=CC([N+](=O)[O-])=C[C-]2[N+](=O)[O-]` (centres undefined), the inhibition was inactive: -2.47%.
The figure for `CCN(/C(=N/P(=O)(N1CCOCC1)N1CCOCC1)N1CCOCC1)c1ccc(OC)cc1` is inactive: 8.88%; for `O=C(Nc1cc([As](=O)(O)O)ccc1O)c1ccccc1` it is inactive: -4.89%.
Take `O=P1(N(CCCl)CCCl)OCCCS1` (centres undefined): the inhibition was inactive: -10.3%.
The figure for `COC(=O)C1(C)COP(=O)(Nc2ccccc2)OC1` (centres undefined) is inactive: 2.58%; for `O=[N+]([O-])c1cccc(NC2=NCC(CBr)S2)c1` (centres undefined) it is inactive: -2.59%.
Consider `O=C(O)CNc1ccc([As](=O)(O)O)cc1`, for which the inhibition was inactive: -3.18%.
On to `CC(C)(C)C(=O)NC(Sc1ccncn1)C(Cl)(Cl)Cl` (centres undefined), for which the inhibition is inactive: -6.6%.
For the molecule `O=[N+]([O-])c1ncn(CCn2ncnc2[N+](=O)[O-])n1`, the inhibition is inactive: -4.57%.
`O=P(Nc1nc2ccccc2s1)(c1ccccc1)c1ccccc1`: the inhibition is inactive: 1.57%.
Take `C[C@H]1OP(=O)(Oc2ccccc2)[C@H](O)[C@H](O)[C@H]1N=[N+]=[N-]` (some centres undefined): the inhibition was inactive: -6.19%.
As to `COc1ccc(N)c([N+](=O)[O-])c1[N+](=O)[O-]`, the inhibition was inactive: -8.2%.
Regarding `Nc1ccc(CCCCOc2ccccc2)cc1`, the inhibition was inactive: -5.01%.
The same measure for `CN(C)C1(CNC(=O)c2ccc(Cl)c(S(N)(=O)=O)c2)CCCCC1`: inactive: 0%; for `O=P(Nc1ccccn1)(c1ccc(Br)cc1)c1ccc(Br)cc1`: inactive: -5.82%; for `C/C(N)=N\P(=O)(OCc1ccccc1)OCc1ccccc1`: inactive: 12.7%.
With `C(Cc1nn[nH]n1)Cc1nn[nH]n1`, the inhibition is inactive: 8.74%.
In the case of `Nc1ccc([As](=O)(O)c2ccc([N+](=O)[O-])cc2)cc1`, the inhibition was inactive: 7.13%.
Regarding `O=C(OC1CN2CCC1CC2)c1cccc(Cl)c1` (centres undefined), the inhibition was inactive: -14.9%.
The same measure for `O=[N+]([O-])c1ncn(CCn2cnc([N+](=O)[O-])n2)n1`: inactive: 12.2%; for `CC(=O)NC(SC(=S)N(C)C)C(Cl)(Cl)Cl` (centres undefined): inactive: -13.7%; for `O=[As](O)(c1ccccc1)c1ccc(O)cc1`: inactive: -4.3%.
`c1nnnn1CCn1cnnn1`: the inhibition is inactive: -8.46%.
For the molecule `O=P(Nc1nccs1)(c1ccccc1)c1ccccc1`, the inhibition is inactive: -9.2%.
Regarding `CC(C)C(=O)NC(Sc1ccccc1)C(Cl)(Cl)Cl` (centres undefined), the inhibition is inactive: 0.31%.
As to `CCc1cc(O)c([N+](=O)[O-])c(C)c1[N+](=O)[O-]`, the inhibition is inactive: -8.17%.
For the molecule `CC(C)(C)C(=O)NC(Sc1ccccc1)C(Cl)(Cl)Cl` (centres undefined), the inhibition is inactive: 1.46%.
Regarding `O=P1(Nc2nc3ccc(Cl)cc3s2)COc2ccccc2O1` (centres undefined), the inhibition is inactive: 2.04%.
Consider `CCOc1ccc(C2=NCC(CBr)S2)cc1` (centres undefined), for which the inhibition was inactive: 14%.
The same measure for `CC(=O)Nc1ccc([As](=O)(O)O)c(O)c1`: inactive: -0.05%; for `CC(=O)Nc1ccc(Oc2c([N+](=O)[O-])cc([N+](=O)[O-])cc2[N+](=O)[O-])cc1`: inactive: -9.79%; for `CC(=O)c1ccc(N2CC2c2ccncc2)cc1` (centres undefined): inactive: -7.02%.
The figure for `N#C/C(=C\c1ccc(N(CCBr)CCBr)cc1)C(N)=O` is inactive: -13.8%; for `COC(=O)C1(C)COP(=O)(NCc2ccccc2)OC1` (centres undefined) it is inactive: 3.5%.
With `Cc1ccccc1CN(C)C(=O)COC(=O)C(O)(c1ccccc1)c1ccccc1`, the inhibition was inactive: -3.07%.
With `C[C@H]1OP(=O)(Oc2ccccc2)C[C@@H]2O[C@@H]21` (some centres undefined), the inhibition is inactive: 6.89%.
With `C[C@@H]1C=CCP(=O)(Oc2ccccc2)O1` (some centres undefined), the inhibition is inactive: -9.07%.
The same measure for `O=P1(N(CCCl)CCCl)OCCC2CCCCN21` (centres undefined): inactive: -13.1%; for `O=C(NC1CCS(=O)(=O)C1)NP(=S)(Oc1ccccc1)Oc1ccccc1` (centres undefined): inactive: -16%; for `CCNC(=S)/N=C(\N)N[N+](=O)[O-]`: inactive: 3.67%.
The same measure for `c1ccc(-c2nn[nH]n2)c(-c2nn[nH]n2)c1`: inactive: 6.68%.
With `Cc1ccc(NP(=O)(Oc2cccc(C)c2)Oc2cccc(C)c2)nc1`, the inhibition was inactive: -7.1%.
As to `CC(NC(=O)COC(=O)C(O)(c1ccccc1)c1ccccc1)c1ccccc1` (centres undefined), the inhibition was inactive: -0.38%.
Regarding `Cc1ccccc1OP(=O)(Nc1ccccn1)Oc1ccccc1C`, the inhibition is inactive: -7.46%.
As to `O=c1c2cc([N+](=O)[O-])ccc2[nH]c2c([N+](=O)[O-])cc([N+](=O)[O-])cc12`, the inhibition is inactive: -12.9%.
The same measure for `CN(C)C(=O)Oc1noc2ccccc12`: inactive: 9.92%.
Turning to `COC(=O)c1cc2c(s1)N=C(c1ccccc1)N(C)P2(=O)N1CCOCC1` (centres undefined), the inhibition was inactive: 7.2%.
`Cc1ccc(OP(=O)(Nc2ccccn2)Oc2ccc(C)cc2)cc1`: the inhibition was inactive: 1.36%.
The figure for `CC(=O)NC(SC(=S)N(CC(C)C)CC(C)C)C(Cl)(Cl)Cl` (centres undefined) is inactive: -5.19%; for `O=C(OC1CN2CCC1CC2)c1ccccc1` (centres undefined) it is inactive: -16.4%; for `CCC(=O)N1C2C3N(C(=O)CC)C1C1N(C(=O)CC)C(C(N1C(=O)CC)N3C(=O)CC)N2C(=O)CC` it is inactive: -4.06%.
